# Earlier results in paper PMC5681266.
# Chains of the proteins cited; added tags and fusions are not shown. Residues count along the entry.
# UniProt P48061, 22-89: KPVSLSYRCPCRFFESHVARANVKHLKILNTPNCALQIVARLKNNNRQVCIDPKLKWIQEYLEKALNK
# Molecular target: CXCL12 (Homo sapiens) (UniProt P48061)
# Settings: cited from earlier work
substance,measurement,value
CXCL12 (from UniProt P48061),Kd,140 µM
